This note sets out measurements from US20060241172A1, “Benzodioxane and benzodioxolane derivatives and uses thereof” (Wyeth, priority 2005, published 2006).

By UniProt entry, the sequences of proteins in these tests, tags left out. Residues count along the entry.
UniProt P28335, 33-458 limits assumed: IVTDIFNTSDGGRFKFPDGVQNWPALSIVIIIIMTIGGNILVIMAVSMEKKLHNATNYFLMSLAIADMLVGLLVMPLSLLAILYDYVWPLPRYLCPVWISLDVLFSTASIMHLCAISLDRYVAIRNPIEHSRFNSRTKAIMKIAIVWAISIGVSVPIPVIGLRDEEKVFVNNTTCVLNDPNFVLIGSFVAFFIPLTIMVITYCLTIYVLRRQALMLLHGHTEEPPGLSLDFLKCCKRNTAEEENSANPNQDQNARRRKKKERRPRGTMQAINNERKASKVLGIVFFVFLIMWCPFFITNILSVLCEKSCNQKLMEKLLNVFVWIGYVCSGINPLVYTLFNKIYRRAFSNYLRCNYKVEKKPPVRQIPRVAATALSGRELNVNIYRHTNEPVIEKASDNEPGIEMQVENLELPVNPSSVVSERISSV

Assay [1] has as its target human 5-hydroxytryptamine-2C (h5-HT2C) receptor (Homo sapiens, UniProt P28335). Briefly: 5-HT2C binding: [125I]DOI displacement in membranes of transfected CHO cells. The conditions noted are these: read-out: 5-HT2C Binding Ki avg; tested form: HCl.
The target of assay [2] is human 5-HT2C receptor (Homo sapiens, UniProt P28335). The experiment in a line: 5-HT2C receptor-stimulated calcium mobilization (FLIPR) in CHO cells. In kind it is cell-based. The conditions noted are these: tested form: HCl. For orientation: Calcium flux is commonly read through the fluorescence of an indicator in the cells.

Broadly, the Ki is a measure of affinity in units of concentration, obtained from inhibition or displacement. A word on the EC50: it is the concentration giving half of the maximal effect. With `Cc1ccccc1-c1c(F)ccc2c1O[C@@H](CN)CO2`, the Ki in assay [1] is below 50 nM. For the same compound, the “5-HT2C Function EMax (%)” value in assay [2] (percentage of the response to a maximally effective concentration of 5-HT) worked out at 40%. The EC50 in assay [2] (read-out: 5-HT2C Function EC50) was below 100 nM.
